According to patent US4039736A, “Antibiotic compounds marcellomycin and musettamycin” (Bristol-Myers Company, priority 1976, dated 1977):

Experiments:
L-1210 leukemia [1] = experiment: transplanted mouse leukemia L-1210 (ascitic); details: for Survivors Day 5: single i.p. injection Day 1
P-388 leukemia = experiment: transplanted mouse leukemia P-388 (ascitic); details: for Survivors Day 5: single i.p. injection Day 1
L-1210 leukemia [2] = experiment: L-1210 mouse leukemia, purified compounds, BDF1 female mice

## CC[C@@]1(O)C[C@H](O[C@H]2C[C@H](N(C)C)[C@H](O[C@H]3C[C@H](O)[C@H](O)[C@H](C)O3)[C@H](C)O2)c2c(cc3c(c2O)C(=O)c2c(O)ccc(O)c2C3=O)[C@H]1C(=O)OC [musettamycin]
L-1210 leukemia [1]; 6.4 mg/kg
  Survivors Day 5: 6/6
L-1210 leukemia [1]; .8 mg/kg
  Survivors Day 5: 6/6
L-1210 leukemia [1]; Example 7 column fraction
  activity on L-1210 mouse leukemia: highly active
P-388 leukemia; 6.4 mg/kg
  Survivors Day 5: 6/6
P-388 leukemia; .2 mg/kg
  Survivors Day 5: 6/6
P-388 leukemia; .4 mg/kg
  Survivors Day 5: 6/6
P-388 leukemia; .8 mg/kg
  Survivors Day 5: 6/6
P-388 leukemia; Example 7 column fraction
  activity on P-388 mouse leukemia: highly active
L-1210 leukemia [2]; 6.4 mg/kg/day i.p., Day 1, 1 injection
  Survivors Day 5: 6/6
L-1210 leukemia [2]; 6.4 mg/kg/day i.p., Day 1→5, 5 injections
  Survivors Day 5: 5/6
L-1210 leukemia [2]; 12.8 mg/kg/day i.p., Day 1, 1 injection
  Survivors Day 5: 6/6
L-1210 leukemia [2]; .2 mg/kg/day i.p., Day 1→5, 5 injections
  Survivors Day 5: 6/6
L-1210 leukemia [2]; .4 mg/kg/day i.p., Day 1, 1 injection
  Survivors Day 5: 6/6
L-1210 leukemia [2]; .4 mg/kg/day i.p., Day 1→5, 5 injections
  Survivors Day 5: 6/6
L-1210 leukemia [2]; .8 mg/kg/day i.p., Day 1, 1 injection
  Survivors Day 5: 6/6
L-1210 leukemia [2]; .8 mg/kg/day i.p., Day 1→5, 5 injections
  Survivors Day 5: 6/6
